Ab-14 light chain CDR variants: yeast mating affinities

Values reported by Engelhart et al. 2022, doi:10.1038/s41597-022-01779-4 (FLAb copy).

Target peptide (SARS-CoV-2 spike, HR2 region): PDVDLGDISGINAS

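Phage display of a naive human antibody library on the peptide gave the parent. The library (AAYL50) carries one to three amino acid substitutions per variant, with no insertions or deletions. The assay is AlphaSeq: two haploid yeast populations carry antibody and antigen on their surface. The frequency of each diploid, read from paired DNA barcodes, reflects how well the two displayed proteins bind. Scores were corrected for input abundance and mapped to Kd with protein pairs of known affinity run in the same pool. Mating was done three times.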

Parent: Ab-14, a human scFv built as VH, a 15-residue (Gly4Ser)3 linker, VL. Only the CDRs of the light chain vary.
VH: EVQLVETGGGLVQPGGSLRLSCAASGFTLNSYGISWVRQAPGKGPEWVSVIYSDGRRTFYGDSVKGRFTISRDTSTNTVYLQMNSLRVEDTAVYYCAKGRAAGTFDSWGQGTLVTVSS
VL: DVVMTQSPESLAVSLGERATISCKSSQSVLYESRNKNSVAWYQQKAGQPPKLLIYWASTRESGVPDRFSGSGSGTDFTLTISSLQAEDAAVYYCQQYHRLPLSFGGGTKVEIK

Positions count from residue 1 of the parent VL; S28C puts C in place of S.
Values are log10 of the apparent Kd in nM; lower means stronger binding.
Replicates are averaged; those with no signal do not enter the mean.
"n.d." means that the variant was in the library but no mating with the target was seen in that replicate; the authors take this as a sign of poor binding, and no number exists.
Parent in this assay: reference entry 0.65, copy in this library 1.68.
Background: pairings of library AAYL50 with three empty control strains gave a value in 18% of cases (median 4.19, 5th percentile 2.99). Values in that range, when seen in few replicates, are hard to tell from nonspecific mating. Also given: how often the same scFv was detected with the empty control strains, with their mean in brackets.

changes	replicates, log10 nM	mean, log10 nM	control signals
S28C S38Y	n.d. / 3.88 / 4.36	4.12	2/9 (4.25)
K36P V39G S62F	n.d. / n.d. / n.d.	n.d.	1/9 (3.24)
S26W R99T	1.36 / 1.65 / 1.69	1.56	4/9 (4.60)
S28R S58T Q96E	n.d. / 3.47 / 4.63	4.05	3/9 (4.47)
E32I V39I	n.d. / n.d. / n.d.	n.d.	0/9
S38L V39N S103G	n.d. / n.d. / n.d.	n.d.	0/9
N35Y A40P T59H	n.d. / 4.78 / n.d.	4.78	3/9 (3.80)
Q27Y V29D Y97V	n.d. / 3.86 / n.d.	3.86	5/9 (4.12)
Y31K N35K Q96A	n.d. / n.d. / n.d.	n.d.	3/9 (4.48)
R34Q R99F P101V	n.d. / n.d. / n.d.	n.d.	0/9
K24S S28V A40V	n.d. / 3.12 / n.d.	3.12	2/9 (3.03)
S25T E61N Q95G	n.d. / 1.64 / 1.70	1.67	0/9
W56F R99M P101R	n.d. / 4.71 / n.d.	4.71	1/9 (4.98)
A57K R99C S103F	n.d. / n.d. / n.d.	n.d.	1/9 (3.65)
Q27K H98K	2.16 / 1.87 / 1.91	1.98	2/9 (2.80)
E32I W56N R60P	3.21 / 5.17 / n.d.	4.19	2/9 (3.57)
K36P E61V L102W	0.58 / 0.79 / 0.84	0.74	7/9 (3.77)
N35I Q96A Y97A	n.d. / n.d. / n.d.	n.d.	0/9
R60F Y97S P101R	n.d. / n.d. / n.d.	n.d.	1/9 (4.81)
E32C S33E N35T	n.d. / n.d. / n.d.	n.d.	2/9 (3.60)
N35T S38I L102V	4.70 / n.d. / n.d.	4.70	0/9
N37A S58P R60W	4.64 / 4.38 / n.d.	4.51	1/9 (4.28)
V29A L30K S38V	n.d. / n.d. / n.d.	n.d.	0/9
S25C Q27M S58Y	1.17 / 1.32 / 1.29	1.26	0/9
K24N R99N L100E	n.d. / n.d. / n.d.	n.d.	0/9
K24H S38K R99I	5.51 / n.d. / n.d.	5.51	1/9 (4.18)
S38V Q95I L100T	n.d. / n.d. / n.d.	n.d.	0/9
L30A Y31E	1.43 / 1.46 / 1.57	1.49	5/9 (3.90)
N37M A57Q	n.d. / n.d. / n.d.	n.d.	1/9 (2.33)
A40S W56I P101R	n.d. / 2.73 / n.d.	2.73	1/9 (3.36)
E32G K36L S58D	0.54 / 0.66 / 0.59	0.60	0/9
K24G K36M E61M	2.08 / 2.20 / 2.84	2.37	3/9 (3.67)
Q27G N35H S38W	n.d. / n.d. / 4.05	4.05	1/9 (5.35)
E32C T59Y R60F	n.d. / n.d. / 2.62	2.62	1/9 (4.26)
S25H T59D L100V	n.d. / 4.89 / n.d.	4.89	4/9 (4.33)
S33K E61V L100N	n.d. / n.d. / n.d.	n.d.	1/9 (2.61)
Y31M K36D N37F	0.55 / 0.71 / 0.45	0.57	0/9
S25K Y31F A57W	n.d. / n.d. / n.d.	n.d.	0/9
Q27N Y31T H98Q	0.25 / 0.55 / 0.39	0.40	3/9 (4.88)
S26M N37P Q95M	n.d. / 3.98 / n.d.	3.98	0/9
E32W T59R R99T	n.d. / n.d. / n.d.	n.d.	0/9
V29W N35L R99W	n.d. / n.d. / n.d.	n.d.	3/9 (4.00)
R60H S62M Y97P	2.69 / 3.04 / 2.58	2.77	1/9 (3.28)
K36T W56V L102I	3.30 / 3.05 / 3.68	3.34	7/9 (4.57)
Q27G A40C L100Y	n.d. / 3.71 / n.d.	3.71	1/9 (3.95)
S25Q K36G W56T	0.91 / 1.07 / 0.98	0.99	3/9 (3.60)
K24N V39Y	n.d. / n.d. / 4.14	4.14	1/9 (4.08)
Q27N Q96H	0.99 / 1.26 / 1.27	1.17	1/9 (2.03)
A57M S62M	n.d. / n.d. / n.d.	n.d.	0/9
S26T S28C Q95V	n.d. / n.d. / n.d.	n.d.	2/9 (3.07)
Y31I K36N S62R	0.68 / 0.88 / 0.67	0.74	1/9 (3.31)
S33F E61N	2.67 / 2.56 / 3.02	2.75	2/9 (5.73)

The closing 8 entries, repeated:

changes	replicates, log10 nM	mean, log10 nM	control signals
Q27G A40C L100Y	n.d. / 3.71 / n.d.	3.71	1/9 (3.95)
S25Q K36G W56T	0.91 / 1.07 / 0.98	0.99	3/9 (3.60)
K24N V39Y	n.d. / n.d. / 4.14	4.14	1/9 (4.08)
Q27N Q96H	0.99 / 1.26 / 1.27	1.17	1/9 (2.03)
A57M S62M	n.d. / n.d. / n.d.	n.d.	0/9
S26T S28C Q95V	n.d. / n.d. / n.d.	n.d.	2/9 (3.07)
Y31I K36N S62R	0.68 / 0.88 / 0.67	0.74	1/9 (3.31)
S33F E61N	2.67 / 2.56 / 3.02	2.75	2/9 (5.73)